This note sets out measurements from patent publication US20140221639A1, “RADIOLABELED NUCLEOSIDE ANALOGUE, AND PREPARATION METHOD AND USE THEREOF” (Institute of Nuclear Energy Research Atomic Energy Council, …, priority 2011, published 2014).

The data set concerns NG4TL4-WT tumor. Briefly: Biodistribution study in tumor-bearing mice. Type of data set: in vivo. The following applies: 1 h; 80~90 μCi tail vein; FVB/N mice with NG4TL4-WT tumor. From the text: […] Tumor and 13 other tissures (blood, heart, lung, liver, stomach, small intestine, large intestine, spleen, pancreas, kidney, bone, marrow, and muscle) were removed, rinsed, weighed, and determined for radioactivity with a γ scintilation counter. Uptake of the radioactive trancers in the tissues (counts per min) was calibrated against decay, normalizedto sample weight, and expressed as percentages of injected dosage per gram of tissue (% ID/g) and aggregation ratio of tumor to blood.

In the case of `O=c1[nH]c(=O)n([C@H]2C[C@H](O)[C@@H](CO)O2)cc1[131I]` [^131I-IUdR, 5-[^124/131I]iodo-2′-deoxyuridine], the “Biodistribution Stomach” value is given as 6.18 ± 1.51 % ID/g.
